Test [1] deals with Carbonic anhydrase 3 (Homo sapiens) (UniProt P07451). The test is described as follows: Activation of human recombinant CA3 by stopped-flow CO2 hydrase assay.
Test [2] concerns Methanosarcina thermophila. The experiment in a line: Activation of Methanosarcina thermophila Zinc(2)-derived gamma-class CA by stopped-flow CO2 hydrase assay.
Test [3] has as its system Methanosarcina thermophila. The experiment in a line: Activation of Methanosarcina thermophila cobalt(2)-derived gamma-class CA by stopped-flow CO2 hydrase assay.
The subject of test [4] is Methanothermobacter thermautotrophicus. The test is described as follows: Activation of Methanobacterium thermoautotrophicum beta-class CA by stopped-flow CO2 hydrase assay.
The target of test [5] is Carbonic anhydrase 1 (Homo sapiens) (UniProt P00915). The experiment in a line: Activation of human recombinant CA1 by stopped-flow CO2 hydrase assay.
In test [6] the target is Carbonic anhydrase 2 (Homo sapiens) (UniProt P00918). The test is described as follows: Activation of human recombinant CA2 by stopped-flow CO2 hydrase assay.

The chains behind the UniProt entries cited, without tags or fusion partners. Where a name states a change or a piece, a line headed by the entry shows the natural chain unless it says otherwise.
UniProt P07451: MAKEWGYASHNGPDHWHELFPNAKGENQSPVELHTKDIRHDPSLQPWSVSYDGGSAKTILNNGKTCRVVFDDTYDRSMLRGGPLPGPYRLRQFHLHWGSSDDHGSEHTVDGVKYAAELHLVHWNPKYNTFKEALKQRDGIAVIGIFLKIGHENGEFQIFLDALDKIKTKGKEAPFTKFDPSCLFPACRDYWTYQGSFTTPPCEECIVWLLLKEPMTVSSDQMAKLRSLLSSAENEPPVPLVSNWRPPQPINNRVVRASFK
UniProt P00915: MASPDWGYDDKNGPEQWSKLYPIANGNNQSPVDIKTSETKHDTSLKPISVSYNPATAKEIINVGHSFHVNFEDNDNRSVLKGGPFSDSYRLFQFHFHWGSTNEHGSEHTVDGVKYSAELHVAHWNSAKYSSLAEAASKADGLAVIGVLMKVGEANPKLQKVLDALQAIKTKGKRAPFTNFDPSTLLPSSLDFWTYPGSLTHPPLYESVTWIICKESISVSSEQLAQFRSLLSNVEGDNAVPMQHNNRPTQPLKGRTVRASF

For the molecule `N[C@@H](Cc1ccccc1)C(=O)O`, the KA in test [1] is 34.7 µM; in test [2] it was 68 µM; in test [3] it was 70 µM; in test [4], 70 µM.

Consider `N[C@H](Cc1ccccc1)C(=O)O`, for which the KA amounted to 15.4 µM in test [1]; 42 µM in test [2]; 24 µM in test [3]; 0.035 µM in test [5]; 10.3 µM in test [4]; 86 µM in test [6].

The values are drawn from ChEMBL document CHEMBL1152133, “Carbonic anhydrase activators: activation of the archaeal beta-class (Cab) and gamma-class (Cam) carbonic anhydrases with amino acids and amines” (Bioorg Med Chem Lett, 2008).
